Results reported in patent publication US10751387B2, “Pharmacological therapy for neuronopathic Gaucher disease” (priority 2016, dated 2020).

Experiments:
GCase = conditions: 12.5 uM, 5 days
CBE-N2a cells = assay: Seahorse mitochondrial function assay (OCR) in cells; assay type: cell-based, mouse; conditions: CBE-N2a cells vs untreated CBE-N2a; dantrolene 12.5 μM, G6 0.8 μM

## O=C1CN(/N=C/c2ccc(-c3ccc([N+](=O)[O-])cc3)o2)C(O)=N1 [Dantrolene]
GCase; 4L/4L (V493L/V394L) fibroblasts
  GCase activity compared to untreated cells: significantly increased
GCase; 4L;C* fibroblasts
  GCase activity compared to untreated cells: significantly increased
GCase; 9H/9H (D409H/D409H) fibroblasts
  GCase activity compared to untreated cells: significantly increased
GCase; 9V/9V (D409V/D409V) fibroblasts
  GCase activity compared to untreated cells: did not show an increase
GCase; WT fibroblasts
  GCase activity compared to untreated cells: significantly increased
CBE-N2a cells
  Oxygen Consumption Rate (OCR: ATP production, basal respiration, maximal respiration): significantly improved

Like-named read-outs stand apart in the source and are kept apart here.
